Test results: PubChem BioAssay AID540364 (The Scripps Research Institute Molecular Screening Center, 2011)
The list shows a part of the results, in another mix than the full data. Some structures show a salt or complex split into parts, the way the source records it. Activity calls are given as the source filed them.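 How the source made its calls: active means activation above the average of all compounds screened plus 3 SD, cutoff fixed separately per campaign (cut at about 7.5% in these data); inactive means the rest.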

test: FXN promoter activators, primary screen, cell-based, luciferase luminescence, HEK293 lucGAA850 (AID 540364); conditions: HEK293 lucGAA850 FXN promoter luciferase reporter, 24 h; at 6 µM; hits give high values; percent of 10 µM SAHA response;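 further: 0% = DMSO wells and 100% = 10 µM SAHA wells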

For `O=[N+]([O-])c1cc([N+](=O)[O-])c(Nc2ccc(Cl)cc2)c([N+](=O)[O-])c1`, which activation is on record?
The activation was inactive: -3.6%.

With `CP(=O)(Nc1ccccc1F)Oc1ccccc1` (configuration not stated) as the molecule, how does the activation read?
Its activation is inactive: -0.07%.

With `CC(C)c1ccc(OP(C)(=O)Nc2ccc(SC(F)(F)F)cc2)cc1` (configuration not stated) as the molecule, how does the activation read?
Its activation is inactive: 1.03%.

With `O=C(OC1CN2CCC1CC2)c1ccc([N+](=O)[O-])cc1` (configuration not stated) as the molecule, how does the activation read?
Its activation is inactive: -2.57%.

With `O=C(OCCN1CCN(CCOCc2ccccc2)CC1)C(O)(c1ccccc1)c1ccccc1` as the molecule, how does the activation read?
Its activation is inactive: -1.59%.

For `COc1ccc2c(c1O)-c1c(O)c(OC)cc3c1[C@H](C2)[N+](C)(C)CC3.O=[N+]([O-])c1cc([N+](=O)[O-])c([O-])c([N+](=O)[O-])c1[O-]`, which activation is on record?
Its activation is inactive: 0.38%.

With `CCOC(=O)c1ccc(NP(C)(=O)Oc2ccc(F)cc2)cc1` (configuration not stated) as the molecule, how does the activation read?
The activation was inactive: 3.65%.

For `COc1ccc(OP(C)(=O)Nc2ccc(SC(F)(F)F)cc2)cc1` (configuration not stated), which activation is on record?
Its activation is inactive: -1.84%.

Which activation does the source give for `Cc1c([N+](=O)[O-])cc([N+](=O)[O-])c(Br)c1[N+](=O)[O-]` here?
The activation was inactive: -1.11%.

For `CCN(CC)CCCOC(=O)C(O)(c1ccccc1)C1CCCCC1` (configuration not stated), which activation is on record?
The activation was inactive: 0.22%.

Which activation does the source give for `CP(=O)(Nc1ccccc1)Oc1ccc(F)cc1` (configuration not stated) here?
The activation was inactive: 0.45%.

Which activation does the source give for `O=[N+]([O-])c1cc([N+](=O)[O-])c(OC2CCCCC2O)c([N+](=O)[O-])c1` (configuration not stated) here?
The activation was inactive: -0.94%.

For `CCCCCOc1ccc(NP(C)(=O)Oc2ccc(Cl)cc2Cl)cc1` (configuration not stated), which activation is on record?
The activation was inactive: 0.77%.

For `COc1ccc(OP(C)(=O)Nc2cccc(Br)c2)cc1` (configuration not stated), which activation is on record?
Its activation is inactive: -1.76%.

Which activation does the source give for `CN(C)CCOC(=O)C(O)(c1ccccc1)C1CCCCC1` (configuration not stated) here?
The activation was inactive: 1.89%.

For `COc1ccc(NP(C)(=O)Oc2ccccc2OC)cc1` (configuration not stated), which activation is on record?
Its activation is inactive: 1.56%.

Which activation does the source give for `O=[N+]([O-])c1ccc(OP2(=O)COCCO2)cc1` (configuration not stated) here?
Its activation is inactive: 0.16%.

For `Cc1cc(-c2cccc3ccccc23)c(C)cn1.O=[N+]([O-])c1cc([N+](=O)[O-])c(O)c([N+](=O)[O-])c1`, which activation is on record?
The activation was inactive: 2.66%.

With `O=[N+]([O-])c1cc([N+](=O)[O-])c(NCC2CCS(=O)(=O)C2)c([N+](=O)[O-])c1` (configuration not stated) as the molecule, how does the activation read?
The activation was active: 11.8%.

For `Cc1c(C(c2ccc3c(c2)OCO3)c2c(C)n(C)n(-c3ccccc3)c2=O)c(=O)n(-c2ccccc2)n1C.O=[N+]([O-])c1cc([N+](=O)[O-])c(O)c([N+](=O)[O-])c1`, which activation is on record?
Its activation is inactive: -1.88%.

For `CP(=O)(Nc1ccc(SC(F)(F)F)cc1)Oc1ccc(F)cc1` (configuration not stated), which activation is on record?
Its activation is inactive: -1.2%.

Which activation does the source give for `CCOP(C)(=S)SCC(=O)NC(C)(CC)C(=O)O` (configuration not stated) here?
Its activation is inactive: -1.46%.
